Molecular target: hMT2 (Homo sapiens, UniProt P49286)
Experiment: Saturation binding of iodinated radioligands, CHO-K1-hMT2 membranes
Settings: saturation 0.01–2 nM radioligand, Scatchard

By UniProt entry, the sequences of proteins in these tests, tags left out.
UniProt P49286, whole entry: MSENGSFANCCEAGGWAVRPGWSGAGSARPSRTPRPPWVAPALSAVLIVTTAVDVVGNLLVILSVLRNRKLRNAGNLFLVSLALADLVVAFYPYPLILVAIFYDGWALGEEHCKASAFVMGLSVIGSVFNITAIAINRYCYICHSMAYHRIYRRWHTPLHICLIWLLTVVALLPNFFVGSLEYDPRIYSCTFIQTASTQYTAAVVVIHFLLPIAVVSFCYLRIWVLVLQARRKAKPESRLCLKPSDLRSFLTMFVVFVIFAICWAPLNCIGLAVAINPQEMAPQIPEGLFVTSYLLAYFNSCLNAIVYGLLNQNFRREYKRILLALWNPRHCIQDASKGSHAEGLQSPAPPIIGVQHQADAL

COc1cc([125I])c(Cc2cc(OC)c(OC)cc2CC(=O)OC(C)(C)C)cc1OC
pKd: 9.65 ± 0.07

Reference: publication PMC3676766, “New Radioligands for Describing the Molecular Pharmacology of MT1 and MT2 Melatonin Receptors” (International Journal of Molecular Sciences, 2013)
